Holding throughout (assay type): cell-based
One test relates to Hep3B cells. Description: Proliferation assay (MTT), Hep3B. The conditions noted are these: Homo sapiens, HCC cell line, 48 h, mean ± S.E.M., read-out: IC50 against cell proliferation, Hep3B. The source says:
(§1) Human cancer cell lines derived from the liver (Hep3B, Huh7) and the lung (A549, H1299) were obtained from American Type Culture Collection (ATCC, Manassas, VA, USA). An H6c7 human normal pancreatic duct epithelial cell line was purchased from Kerafast (Boston, MA, USA). […] The media were supplemented with 10% fetal bovine serum (FBS) (Gibco/ThermoFisher Scientific) and 1% penicillin/streptomycin (Gibco/ThermoFisher Scientific). In the case of H6c7, the cells were maintained in a keratinocyte serum-free medium supplemented with a recombinant […] (rEGF) and bovine pituitary extract (Gibco/ThermoFisher Scientific).
(§2) HCC (Hep3B, Huh7) and NSCLC (A549, H1299) cell lines were seeded in a 96-well plate at a density of 2.5 × 10^4 cells/mL in complete media and allowed to adhere for 24 h. […] Then, the media were removed, and 200 µL of dimethyl sulfoxide (DMSO) (Duksan, Ansan, South Korea) was added to solubilize the formazan crystal. After a 30 min incubation, the absorbance was measured at 540 nm using a microplate reader (BMG LABTECH, Ortenberg, Germany).

Another test relates to Huh7 cells. Briefly: Proliferation assay (MTT), Huh7. The settings on record: Homo sapiens, Huh-7, HCC cell line, 48 h, mean ± S.E.M., read-out: IC50 against cell proliferation, Huh7.
Source text: as §1, §2

The next test concerns A549 cells. Briefly: Proliferation assay (MTT), A549. The settings on record: Homo sapiens, NSCLC cell line, 48 h, mean ± S.E.M., read-out: IC50 against cell proliferation, A549.
Source text: as §1, §2

The next test has as its system H1299 cells. Briefly: Proliferation assay (MTT), H1299. The settings on record: Homo sapiens, NCI-H1299, NSCLC cell line, 48 h, mean ± S.E.M., read-out: IC50 against cell proliferation, H1299.
Source text: as §1, §2

Take `COc1cc2nccc(Oc3ccc(NC(=O)C4(C(=O)Nc5ccc(F)cc5)CC4)cc3)c2cc1OC` [Cabozantinib, cabozantinib, reference compound]: the IC50 with Hep3B cells was found to be 15.2 ± 2.8 µM; in the test with Huh7 cells it was 9.1 ± 1.1 µM; with A549 cells, 37.3 ± 10 µM; in the test with H1299 cells it was 16.1 ± 2.8 µM.
